Key:
[1] = tested on: human cultured epidermal model (LabCyte EPI-MODEL12); conditions: 37° C.
Procedure: A human cultured epidermal model (LabCyte EPI-MODEL12, Japan Tissue Engineering Co., Ltd.) was used. The phase on the stratum corneum side of the model was defined as a donor phase, whereas the phase on the stratum basal side of the model was defined as a receptor phase. […] The test was carried out in an incubator of 37° C. […] Each solution (300 μL) was added to the donor phase. […] The Hanks' balanced salt solution was used as the receptor fluid.

[2] = tested on: human cultured epidermal model (LabCyte EPI-MODEL12); conditions: pregabalin 10 mg/mL in 100 mmol/L aqueous solution or dispersion of the ionic liquid, 300 μL donor, 37° C., control in water 252
Procedure: A human cultured epidermal model (LabCyte EPI-MODEL12, Japan Tissue Engineering Co., Ltd.) was used. The phase on the stratum corneum side of the model was defined as a donor phase, whereas the phase on the stratum basal side of the model was defined as a receptor phase. Whether a temperature-responsive ionic liquid enhances the permeation of pregabalin from the donor phase to the receptor phase was examined. The test was carried out in an incubator of 37° C. Pregabalin was dissolved in water, or a 100 mmol/L aqueous solution or water dispersion of a temperature-responsive ionic liquid to a concentration of 10 mg/mL. Each solution (300 μL) was added to the donor phase. Twenty-four hours later, a receptor fluid was sampled and analyzed by LC-MS/MS to obtain the amount of pregabalin permeated. The Hanks' balanced salt solution was used as the receptor fluid.

[3] = Confirmation of temperature responsive property of ionic liquid (lower critical solution temperature by absorbance at 450 nm); type: physicochemical; conditions: for LCST (lower critical solution temperature): ionic liquid-water sample, absorbance 450 nm, UV1650PC, heating 20° C.→95° C. (0.5° C./minute), initial waiting 10 minutes
Procedure: (§1) Whether an ionic liquid is a temperature-responsive ionic liquid having a lower critical solution temperature (LCST-type temperature-responsive ionic liquid) is determined by measuring the absorbance of the liquid at a wavelength within a visible light region while gradually increasing the temperature and observing white turbidity, in other words, an abrupt increase in absorbance at a certain temperature caused by an increase in degree of hydrophobicity. The specific procedure is as follows. First, a mixture of an ionic liquid and water is prepared and the layer state at room temperature is observed. Then, the mixture is placed in a refrigerator of 4° C., sufficiently stirred and allowed to stand still for one hour. The state of the mixture is observed. If the layer state of the ionic liquid-water mixture at room temperature is the same as the layer state at 4° C., the mixture is increased in temperature at a rate of 0.5° C./minute within the range of 20° C. to 95° C. and the absorbance of the mixture is measured at 450 nm. Based on a change in absorbance, whether the ionic liquid thus measured is LCST-type temperature-responsive ionic liquid or not can be checked.
The obtained data of absorbance change can be analyzed by differential calculus according to Tm (nucleic acid melting temperature) analysis program to obtain the lower critical solution temperature. In contrast, if the phase state of the ionic liquid-water mixture at room temperature is different from the state at 4° C., the mixture is increased in temperature at a rate of 0.5° C./minute within the range of 5° C. to 40° C. and the absorbance of the mixture is measured at 450 nm. Based on a change in absorbance, whether the ionic liquid thus measured is LCST-type temperature-responsive ionic liquid or not can be checked.
(§2) More specifically, the temperature responsive property was examined by measuring a absorbance at 450 nm at different temperatures in the following measurement conditions to obtain a change in absorbance.
(0.5° C./minute) • Analysis method: calculation by differential calculus using Tm (nucleic acid melting temperature) analysis program
(§3) (0.5° C./minute) • Analysis method: calculation by differential calculus using Tm (nucleic acid melting temperature) analysis program.
as §3

[4] = mixture of ionic liquid and water as obtained in the synthesis
Procedure: as §1, §2

Substance	24-hour Cumulative permeation amount of pregabalin [2] [μg/cm^2]	LCST (lower critical solution temperature) [3]	compatibility with water at room temperature [4]	further results
tetrabutylphosphonium salicylate [Synthesis Example 9-sample]	3410	25.7 °C	compatible with water at room temperature	24-hour Cumulative permeation amount of etodolac ([1]; etodolac in 100 mmol/L aqueous solution of the ionic liquid, 300 μL donor, control in 0.5% methyl cellulose 34.9): 42.5 μg/cm^2; 24-hour Cumulative permeation amount of lidocaine hydrochloride monohydrate ([1]; lidocaine hydrochloride monohydrate 10 mg/mL in 100 mmol/L aqueous solution or dispersion of the ionic liquid, control in water 308): 829 μg/cm^2; 24-hour Cumulative permeation amount of tramadol hydrochloride ([1]; tramadol hydrochloride 10 mg/mL in 100 mmol/L aqueous solution or dispersion of the ionic liquid, control in water 300): 4030 μg/cm^2
tetrabutylphosphonium 5-chlorosalicylate [Synthesis Example 6-sample]		32.4 °C		
tetrabutylphosphonium 4-methylsalicylate [Synthesis Example 4-sample]		24.5 °C	compatible with water at room temperature	
tetrabutylphosphonium 4-aminotoluene-3-sulfonate [Synthesis Example 14-sample]		41.4 °C	compatible with water at room temperature	
tetrabutylammonium 4-(trifluoromethyl)salicylate [Synthesis Example 10-sample]	3480	23.7 °C	separated from water at room temperature	
tetrabutylphosphonium 5-bromosalicylate [Synthesis Example 2-sample]		27.7 °C	separated from water at room temperature	
tetrabutylphosphonium 3-methylsalicylate [Synthesis Example 3-sample]		23.5 °C	compatible with water at room temperature	
tetrabutylphosphonium m-xylene-4-sulfonate [Synthesis Example 15-sample]	1100	23.7 °C	separated from water at room temperature	
tetrabutylphosphonium 4-hydroxybenzenesulfonate [Synthesis Example 13-sample]		24.7 °C	separated from water at room temperature	
tetrabutylphosphonium 4-chlorosalicylate [Synthesis Example 5-sample]		29.7 °C		
diisopropanolammonium decanoate [Reference Example 4-sample, reference compound]	493			
tetrabutylphosphonium 3-carboxy-4-hydroxybenzene-sulfonate [Synthesis Example 8-sample]		29.6 °C		
tetrabutylammonium salicylate [Synthesis Example 11-sample]	1120	37.2 °C	compatible with water at room temperature	
tetrabutylphosphonium 4-aminosalicylate [Reference Example 1-sample, reference compound]		None		temperature responsive property ([3]; change in absorbance at 450 nm with temperature): does not exhibit a temperature responsive property
tetrabutylphosphonium 5-iodosalicylate [Synthesis Example 7-sample]		32.7 °C		

Source: patent US20240058452A1, “PHARMACEUTICAL COMPOSITION CONTAINING TEMPERATURE-RESPONSIVE IONIC LIQUID” (priority 2019, published 2024)
